According to ChEMBL document CHEMBL1127260, “EMD 61 753 as a favourable representative of structurally novel arylacetamido-type K opiate receptor agonists” (Bioorg Med Chem Lett, 1994):
“And” between values parts separate entries of the source, which are not always exact repeats. Equal values may be shown once.

Sequences of proteins named here, by UniProt entry; tags and fusion partners are left off. A change or cut given only in a name is not applied to a line headed by its entry.
UniProt P41144: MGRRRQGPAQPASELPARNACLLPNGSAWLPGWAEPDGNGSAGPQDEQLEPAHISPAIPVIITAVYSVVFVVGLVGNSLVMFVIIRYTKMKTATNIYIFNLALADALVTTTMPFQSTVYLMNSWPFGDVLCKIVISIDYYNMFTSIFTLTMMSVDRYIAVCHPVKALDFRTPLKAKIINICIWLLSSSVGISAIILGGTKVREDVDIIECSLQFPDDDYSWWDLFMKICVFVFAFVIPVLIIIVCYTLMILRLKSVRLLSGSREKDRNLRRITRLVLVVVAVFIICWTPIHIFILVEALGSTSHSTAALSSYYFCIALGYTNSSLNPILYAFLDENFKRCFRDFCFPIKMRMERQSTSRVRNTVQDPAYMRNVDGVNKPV
UniProt P33533, whole entry, looked up: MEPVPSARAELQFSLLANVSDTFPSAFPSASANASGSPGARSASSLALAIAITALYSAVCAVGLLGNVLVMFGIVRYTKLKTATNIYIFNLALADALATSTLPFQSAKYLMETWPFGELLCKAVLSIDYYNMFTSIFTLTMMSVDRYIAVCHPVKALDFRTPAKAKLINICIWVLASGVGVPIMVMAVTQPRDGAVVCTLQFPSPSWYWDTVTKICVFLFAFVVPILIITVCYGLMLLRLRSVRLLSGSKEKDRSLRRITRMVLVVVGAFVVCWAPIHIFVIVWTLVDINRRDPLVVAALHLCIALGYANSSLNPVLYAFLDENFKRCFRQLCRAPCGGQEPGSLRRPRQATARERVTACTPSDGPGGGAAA
UniProt P33535, whole entry, looked up: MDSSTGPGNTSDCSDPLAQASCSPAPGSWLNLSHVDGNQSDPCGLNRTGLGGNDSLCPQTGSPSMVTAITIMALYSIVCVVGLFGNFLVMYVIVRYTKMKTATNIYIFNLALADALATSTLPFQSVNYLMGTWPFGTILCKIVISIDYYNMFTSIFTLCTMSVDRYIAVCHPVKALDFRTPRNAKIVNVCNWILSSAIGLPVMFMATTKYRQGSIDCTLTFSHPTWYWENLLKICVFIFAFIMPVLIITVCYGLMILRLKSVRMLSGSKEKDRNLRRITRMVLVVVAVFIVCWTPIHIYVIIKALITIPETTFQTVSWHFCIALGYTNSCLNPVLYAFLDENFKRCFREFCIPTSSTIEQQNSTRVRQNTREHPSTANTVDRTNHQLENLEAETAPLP

Assays:
[1] = biological target: Kappa-type opioid receptor (Cavia porcellus, UniProt P41144); test: Affinity at K opioid receptor on membranes prepared from guinea pig cerebellum by [3H]- 69593 displacement.
[2] = biological target: Delta-type opioid receptor (Rattus norvegicus, UniProt P33533); test: Affinity to delta opioid receptor determined in the presence of [3H]- [D-Pen2,5]enkephalin using membranes prepared from rat cerebrum
Mu-type opioid receptor = Mu-type opioid receptor (Rattus norvegicus, UniProt P33535); test: Affinity to mu opioid receptor determined in the presence of [3H]- PL 017 using membranes prepared from rat cerebrum

SMILES	Ki [1]	Ki [2] [nM]	Ki (Mu-type opioid receptor) [nM]
CN(C(=O)Cc1ccc(Cl)c(Cl)c1)[C@H]1CCCC[C@@H]1N1CCCC1	1 nM		
CC(C)C(C(=O)N(C)[C@H](CN1CC[C@H](O)C1)c1ccccc1)c1ccccc1 (stereo partly drawn)	3 nM and 10 nM	> 100	> 100
CN(C(=O)Cc1ccccc1N)[C@H](CN1CC[C@H](O)C1)c1ccccc1	1 nM	> 100	> 100
CN(C(=O)C(c1ccccc1)c1ccccc1)[C@H](CN1CC[C@H](O)C1)c1ccccc1.Cl [ASIMADOLINE HYDROCHLORIDE]	2 nM		
